Test results reported in US10613078B2, “Assays for measuring cardiotoxicity” (NCARDIA B.V., priority 2015, dated 2020).

System: human stem-cell derived cardiomyocytes

Substance: Herceptin: monoclonal antibody trastuzumab (Herceptin) that targets the human ERBB2 receptor
- effect on ATP levels with addition of Neuregulin ligand: effects of Herceptin at both doxorubicin concentrations tested
